Holding throughout (format): cell-based
The target in assay [1] is T1, human α1A‐adrenoceptor (Homo sapiens, UniProt P35348). Briefly: ^3H‐cAMP accumulation, CHO‐α1A cells. The following applies: 5 h. On the technique in general: Cyclic AMP is a second messenger, typically raised through Gs and lowered through Gi signalling.
Assay [2] concerns the target T2, human α1B‐adrenoceptor (Homo sapiens, UniProt P35368). Briefly: ERK1/2‐phosphorylation (Surefire Alphascreen), CHO‐α1B cells. The following applies: maximal response as % PDBu response, for bi‐phasic responses the initial stimulatory part. For orientation: Alpha assays give light when donor and acceptor beads are brought close together.
Assay [3] deals with T1, human α1A‐adrenoceptor. As to the kind of experiment: Intracellular free calcium mobilization, CHO‐α1A cells. The following applies: given as log EC50 (negative). A general note: Calcium assays in cells follow changes in intracellular calcium, usually with a dye or a luminescent sensor.
For assay [4], the target named is T2, human α1B‐adrenoceptor. Briefly: Intracellular free calcium mobilization, CHO‐α1B cells. The following applies: response at 100 µM ligand (no EC50 given), % of ionomycin response.
The target in assay [5] is T1, human α1A‐adrenoceptor. As to the kind of experiment: ^3H‐cAMP accumulation in the presence of 10 μM forskolin, CHO‐α1A cells.

Protein sequences, listed by entry. Tags and fused reporters are not part of them.
UniProt P35348, whole entry: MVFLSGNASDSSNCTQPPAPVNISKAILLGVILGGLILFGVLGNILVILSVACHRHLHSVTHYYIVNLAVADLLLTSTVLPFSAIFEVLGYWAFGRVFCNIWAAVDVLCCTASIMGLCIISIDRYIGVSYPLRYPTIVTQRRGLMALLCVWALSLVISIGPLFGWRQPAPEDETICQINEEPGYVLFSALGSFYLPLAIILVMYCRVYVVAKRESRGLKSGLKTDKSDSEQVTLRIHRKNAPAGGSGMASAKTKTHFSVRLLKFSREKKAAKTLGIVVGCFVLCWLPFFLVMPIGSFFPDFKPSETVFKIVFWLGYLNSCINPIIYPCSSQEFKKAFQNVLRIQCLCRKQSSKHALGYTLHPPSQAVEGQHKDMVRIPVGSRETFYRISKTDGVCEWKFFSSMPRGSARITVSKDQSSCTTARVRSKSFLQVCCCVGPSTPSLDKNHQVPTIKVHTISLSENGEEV
UniProt P35368, whole entry: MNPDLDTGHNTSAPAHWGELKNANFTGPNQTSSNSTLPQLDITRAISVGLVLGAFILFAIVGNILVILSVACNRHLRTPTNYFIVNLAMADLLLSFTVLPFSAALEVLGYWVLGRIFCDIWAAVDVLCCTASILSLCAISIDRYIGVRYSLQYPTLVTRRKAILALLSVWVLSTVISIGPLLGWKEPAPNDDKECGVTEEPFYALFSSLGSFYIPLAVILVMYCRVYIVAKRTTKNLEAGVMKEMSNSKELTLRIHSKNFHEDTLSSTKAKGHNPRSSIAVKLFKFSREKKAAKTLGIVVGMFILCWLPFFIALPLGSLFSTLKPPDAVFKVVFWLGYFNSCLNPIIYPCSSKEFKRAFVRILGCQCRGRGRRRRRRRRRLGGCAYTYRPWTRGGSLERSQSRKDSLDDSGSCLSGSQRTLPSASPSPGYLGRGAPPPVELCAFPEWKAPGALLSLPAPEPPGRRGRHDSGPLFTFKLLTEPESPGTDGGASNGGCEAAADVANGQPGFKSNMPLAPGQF

Turning to `COc1ccccc1N1CCN(CCn2c(=O)[nH]c3c([nH]c4ccccc43)c2=O)CC1`, on human α1A‐adrenoceptor [1], the “cAMP accumulation Log EC50” value is recorded as “No response”. The “ERK1/2‐phosphorylation % PDBu” value at human α1B‐adrenoceptor [2] is given as “No response”. For the same compound, the “Intracellular calcium release Log EC50” value on human α1A‐adrenoceptor [3] is listed as −7.79 ± 0.12. The “Intracellular calcium release % ionomycin at 100 µM” value at human α1B‐adrenoceptor [4] was 4.6 ± 1.9%. On human α1A‐adrenoceptor [5], the “cAMP accumulation (in presence of forskolin) Log EC50” value is “No response”.

For the origin of these results see PMC8343220, “The selectivity of α‐adrenoceptor agonists for the human α1A, α1B, and α1D‐adrenoceptors” (Pharmacology Research & Perspectives, 2021).
